# Reference: patent US10030020B2, “Spirocycle compounds and methods of making and using same” (Abide Therapeutics, Inc., priority 2016, dated 2018)
# Sequences of proteins named here, by UniProt entry; tags and fusion partners are left off.
# UniProt O35678, whole entry: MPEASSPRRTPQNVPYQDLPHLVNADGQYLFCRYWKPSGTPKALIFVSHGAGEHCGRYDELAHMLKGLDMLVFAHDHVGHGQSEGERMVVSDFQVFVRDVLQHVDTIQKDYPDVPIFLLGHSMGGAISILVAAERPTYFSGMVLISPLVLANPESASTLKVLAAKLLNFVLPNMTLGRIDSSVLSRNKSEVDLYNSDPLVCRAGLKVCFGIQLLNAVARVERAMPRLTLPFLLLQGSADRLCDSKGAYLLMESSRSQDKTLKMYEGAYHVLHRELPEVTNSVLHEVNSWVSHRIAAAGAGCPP
# Biological target: MAGL (Mus musculus (Mouse), UniProt O35678)
# Test: In vitro competitive activity-based protein profiling (mouse brain membrane fraction or cell lysates), MAGL band
# Assay type: biochemical
# Settings: mouse proteome, competitive ABPP
# Protocol: In Vitro Competitive Activity-Based Protein Profiling.
# Proteomes (mouse brain membrane fraction or cell lysates) (50 μL, 1.0 mg/mL total protein concentration) were preincubated with varying concentrations of inhibitors at 37° C. After 30 min, FP—Rh (1.0 μL, 50 μM in DMSO) was added and the mixture was incubated for another 30 min at 37° C. Reactions were quenched with SDS loading buffer (50 μL-4×) and run on SDS-PAGE.
row,IC50,SMILES
1,100 to 1000 nM,"O=C(OC(C(F)(F)F)C(F)(F)F)N1CCC2(CCCN2Cc2ccccc2)CC1 [Example 63, 1,1,1,3,3,3-Hexafluoropropan-2-yl 1-benzyl-1,8-diazaspiro[4.5]decane-8-carboxylate]"
2,100 to 1000 nM,"O=C(OC(C(F)(F)F)C(F)(F)F)N1CCC2(CCN(Cc3ccc(N4CCOCC4)c(Cl)c3)C2)CC1 [Example 138, 1,1,1,3,3,3-Hexafluoropropan-2-yl 2-(3-chloro-4-morpholinobenzyl)-2,8-diazaspiro[4.5]decane-8-carboxylate]"
3,100 to 1000 nM,"O=C(OC(C(F)(F)F)C(F)(F)F)N1CCC2(CCCN2Cc2cccc(N3CCOCC3)c2)CC1 [Example 69, 1,1,1,3,3,3-Hexafluoropropan-2-yl 1-(3-morpholinobenzyl)-1,8-diazaspiro[4.5]decane-8-carboxylate]"
4,100 to 1000 nM,"COc1cc(Cl)ccc1CN1CC2(CCN(C(=O)OC(C(F)(F)F)C(F)(F)F)CC2)CC1(C)C [Example 49, 1,1,1,3,3,3-Hexafluoropropan-2-yl 2-(4-chloro-2-methoxybenzyl)-3,3-dimethyl-2,8-diazaspiro[4.5]decane-8-carboxylate]"
5,100 to 1000 nM,"COc1ccc(CN2CCCC23CCN(C(=O)OC(C(F)(F)F)C(F)(F)F)CC3)cc1 [Example 1, 1,1,1,3,3,3-Hexafluoropropan-2-yl 1-(4-methoxybenzyl)-1,8-diazaspiro[4.5]decane-8-carboxylate]"
6,100 to 1000 nM,"O=C(OC(C(F)(F)F)C(F)(F)F)N1CCC2(CCCN2Cc2cccc(N3CCN(C4CC4)CC3)c2Cl)CC1 [Example 115, 1,1,1,3,3,3-Hexafluoropropan-2-yl 1-(2-chloro-3-(4-cyclopropylpiperazin-1-yl)benzyl)-1,8-diazaspiro[4.5]decane-8-carboxylate]"
7,100 to 1000 nM,"O=C(OC(C(F)(F)F)C(F)(F)F)N1CCC2(CCCN2Cc2cccc(N3CCC4(CCOCC4)C3)c2Cl)CC1 [Example 117, 1,1,1,3,3,3-Hexafluoropropan-2-yl 1-(2-chloro-3-(8-oxa-2-azaspiro[4.5]decan-2-yl)benzyl)-1,8-diazaspiro[4.5]decane-8-carboxylate]"
8,100 to 1000 nM,"O=C(OC(C(F)(F)F)C(F)(F)F)N1CCC2(CCCN2Cc2cc(N3CCC(C(F)(F)F)CC3)cc(C(F)(F)F)c2)CC1 [Example 44, 1,1,1,3,3,3-Hexafluoropropan-2-yl 1-(3-(trifluoromethyl)-5-(4-(trifluoromethyl)piperidin-1-yl)benzyl)-1,8-diazaspiro[4.5]decane-8-carboxylate]"
9,100 to 1000 nM,"O=C(OC(C(F)(F)F)C(F)(F)F)N1CCC2(CCCN2Cc2ccc(N3CCOCC3)c(Cl)c2)CC1 [Example 127, 1,1,1,3,3,3-Hexafluoropropan-2-yl 1-(3-chloro-4-morpholinobenzyl)-1,8-diazaspiro[4.5]decane-8-carboxylate]"
10,100 to 1000 nM,"O=C(OC(C(F)(F)F)C(F)(F)F)N1CCC2(CCCN2Cc2ccc(OCCN3CCOCC3)cc2)CC1 [Example 14, 1,1,1,3,3,3-Hexafluoropropan-2-yl 1-(4-(2-morpholinoethoxy)benzyl)-1,8-diazaspiro[4.5]decane-8-carboxylate]"
11,100 to 1000 nM,"CC1(C)CC2(CCN(C(=O)OC(C(F)(F)F)C(F)(F)F)CC2)CN1Cc1c(N2CC3COCC3C2)cccc1C(F)(F)F (centres unmarked) [Example 57, 1,1,1,3,3,3-Hexafluoropropan-2-yl 3,3-dimethyl-2-(2-(tetrahydro-1H-furo[3,4-c]pyrrol-5(3H)-yl)-6-(trifluoromethyl)benzyl)-2,8-diazaspiro[4.5]decane-8-carboxylate]"
